± gives the uncertainty stated by the source.
Experiment: xn = mol fraction of the nth substance listed
Settings: 298.15 K, 101 kPa

Work on `OCCOCCOCCOCCO` + CCCC[n+]1ccn(C)c1.F[B-](F)(F)F yielded a viscosity (x1 = 0.5) of 58 ± 1.4 mPa·s and a viscosity (x1 = 1) of 47 ± 1.1 mPa·s.

`OCCOCCOCCOCCO` + CCCC[n+]1ccn(C)c1.F[P-](F)(F)(F)(F)F gave a viscosity (x1 = 0.5) of 123.2 ± 4.7 mPa·s and a viscosity (x1 = 1) of 47.2 ± 1.1 mPa·s.

With `OCCOCCOCCOCCO` + CCCC[n+]1ccn(C)c1.O=C([O-])C(F)(F)F the viscosity (x1 = 1) was 46.8 ± 1.1 mPa·s.

Compound `OCCOCCOCCOCCO` + CCCC[n+]1ccn(C)c1.O=S(=O)([N-]S(=O)(=O)C(F)(F)F)C(F)(F)F has a viscosity (x1 = 0.5) of 46.4 ± 1.1 mPa·s and a viscosity (x1 = 1) of 46.3 ± 1.1 mPa·s.
